In patent EP0039538A1, “Metal amine carboxylates and use thereof as preservatives” (BP Chemicals Limited, priority 1980, dated 1981):

Test: Solubility in water / copper content of aqueous solution

Question: Which results are given for Copper ethylene diamine acetate [CEDA]?
Answer: copper content of CEDA solution (aqueous solution as prepared in Example 1(a)): 10.75 by weight of copper; solubility of the solid in water (dried blue solid of Example 1(b)): soluble in an equal weight of water
